pIC50: −log10 of the molar value.

The target of this assay is T1, Dynamin-1 (Homo sapiens, UniProt Q05193).
T1 sequence (Q05193 whole entry): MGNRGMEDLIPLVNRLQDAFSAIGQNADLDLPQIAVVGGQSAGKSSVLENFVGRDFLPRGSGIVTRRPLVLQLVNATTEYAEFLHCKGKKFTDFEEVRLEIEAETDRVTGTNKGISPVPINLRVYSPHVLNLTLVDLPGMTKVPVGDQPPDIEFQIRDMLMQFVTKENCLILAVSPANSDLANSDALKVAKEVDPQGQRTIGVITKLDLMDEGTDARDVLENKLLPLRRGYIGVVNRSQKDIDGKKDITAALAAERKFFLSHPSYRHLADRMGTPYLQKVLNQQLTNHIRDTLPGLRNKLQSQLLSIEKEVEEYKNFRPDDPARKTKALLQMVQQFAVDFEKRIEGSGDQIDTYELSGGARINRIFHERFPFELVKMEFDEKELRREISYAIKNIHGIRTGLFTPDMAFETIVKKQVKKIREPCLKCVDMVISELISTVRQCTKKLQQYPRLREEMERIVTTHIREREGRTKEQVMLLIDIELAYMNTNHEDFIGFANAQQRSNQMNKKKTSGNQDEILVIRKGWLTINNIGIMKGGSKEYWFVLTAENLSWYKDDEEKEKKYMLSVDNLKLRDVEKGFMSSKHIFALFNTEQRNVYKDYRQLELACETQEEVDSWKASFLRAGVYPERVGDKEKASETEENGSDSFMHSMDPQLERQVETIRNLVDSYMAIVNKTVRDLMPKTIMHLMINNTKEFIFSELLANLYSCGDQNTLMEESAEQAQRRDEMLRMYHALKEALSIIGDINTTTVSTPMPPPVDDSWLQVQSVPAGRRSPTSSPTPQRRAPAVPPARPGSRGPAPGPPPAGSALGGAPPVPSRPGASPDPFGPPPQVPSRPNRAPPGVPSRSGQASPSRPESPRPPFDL
Kind of assay: Concentration required against dynamin-1 GTPase activity of sheep brain. Set-up: species or system Ovis aries.

As usually defined, the pIC50 is the IC50 on a negative log10 scale, so that one unit is a factor of ten. A high value points to a low IC50. CETRIMIDE showed a pIC50 of 5.24.

Source of the values: ChEMBL document CHEMBL1149230, “Long chain amines and long chain ammonium salts as novel inhibitors of dynamin GTPase activity” (Bioorg Med Chem Lett, 2004).
